Laboratory results as given in patent US9371363B2, “Peptides and their use” (Novabiotics Limited, priority 2007, dated 2016).

Legend:
S. aureus = assay type: cell-based; conditions: CLSI broth dilution
Description: (§1) Broth Dilution Antibacterial Susceptibility Testing
(§2) The sensitivity of relevant bacterial strains to the peptides (was determined using Clinical Laboratory Standard Institute (CLSI; formerly NCCLS) Approved Standards. Bacterial susceptibility was tested using “Methods for Dilution Antimicrobial Susceptibility Tests for Bacteria That Grow […]; Approved Standard—Seventh Edition M7-A7”

Ps. aeruginosa = assay type: cell-based; conditions: CLSI broth dilution
Description: as §1, §2

Row | SMILES | Minimum Inhibitory Concentration, antimicrobial activity, S. aureus (S. aureus) [mM] | Minimum Inhibitory Concentration, antimicrobial activity, Ps. aeruginosa (Ps. aeruginosa) [mM]
1 | N=C(N)NCCC[C@H](NC(=O)[C@H](CCCNC(=N)N)NC(=O)[C@H](CCCNC(=N)N)NC(=O)[C@H](CCCNC(=N)N)NC(=O)[C@H](CCCNC(=N)N)NC(=O)[C@H](CCCNC(=N)N)NC(=O)[C@H](CCCNC(=N)N)NC(=O)[C@H](CCCNC(=N)N)NC(=O)[C@@H](N)CCCNC(=N)N)C(=O)O [NP316, RRRRRRRRR (SEQ ID NO: 12)] | >2 | –
2 | N=C(N)NCCC[C@H](NC(=O)[C@H](CCCNC(=N)N)NC(=O)[C@H](CCCNC(=N)N)NC(=O)[C@H](CCCNC(=N)N)NC(=O)[C@H](CCCNC(=N)N)NC(=O)[C@H](CCCNC(=N)N)NC(=O)[C@H](CCCNC(=N)N)NC(=O)[C@H](CCCNC(=N)N)NC(=O)[C@@H](N)CCCNC(=N)N)C(=O)O [NP349, RRRRRRRRR (SEQ ID NO: 12)] | – | 0.5
